# Assay results as given in patent US9931331B2, “Pharmaceutical composition for preventing or treating cancer, containing proteasome inhibitor and loperamide as active ingredients” (priority 2013, dated 2018).
# Tests used:
# [1] = tested on: kidney cancer cell (Caki-1); assay: Cell viability (calcein-AM / ethidium homodimer-1), Caki-1; details: epoxomicin 40 nM alone, 24 h
# Protocol: (§1) Strains of cervical cancer cell (HeLa), kidney cancer cell (Caki-1), brain tumor cell (T98G), breast cancer cell (MDA-MB 435S), and colon cancer cell (DLD-1), multiple myeloma cell (RPMI-8226), and a strain of normal breast epithelial cell (MCF-10A) were available from ATCC (American Type Culture Collection, USA). The strains of cervical cancer cell (HeLa), kidney cancer cell (Caki-1), brain tumor cell (T98G), breast cancer cell (MDA-MB 435S), and colon cancer cell (DLD-1) were cultured by using a DMEM medium including 10% fetal bovine serum (FBS), 2 mM of L-glutamin, 100 i.u./ml of penicillin, and […] of streptomycin for the culture and maintenance; multiple myeloma cell (RPMI-8226) was cultured by using a RPMI1640 medium including 10% FBS, 100 i.u./ml of penicillin, and […] of streptomycin; and the strain of normal breast epithelial cell (MCF-10A) was cultured by using a mammary epithelial growth medium (MEGM) including a bovine pituitary extract, insulin, human epidermal growth factor, hydrocortisone, and antibiotics, and the culture conditions included 37° C. and 5% CO2 in an incubator.
# (§2) Then, the cells were stained by using 2 μM calcein-AM and 4 μM ethidium homodimer-1, and cell viability was measured by using a fluorescent microscope (Axiovert 200M, available from Carl Zeiss, Jena, Germany).
# [2] = tested on: breast cancer cell (MDA-MB 435S); assay: Cell viability (calcein-AM / ethidium homodimer-1), MDA-MB 435S; details: 24 h
# Protocol: as §1, §2
# [3] = tested on: colon cancer cell (DLD-1); assay: Cell viability (calcein-AM / ethidium homodimer-1), DLD-1; details: epoxomicin 40 nM alone, 24 h
# Protocol: as §1, §2
# brain tumor cell (T98G) = assay: Cell viability (calcein-AM / ethidium homodimer-1), T98G; details: loperamide 20 μM alone, 24 h
# Protocol: as §1, §2
Structure (SMILES),Cell viability [1],Cell viability ([2]; epoxomicin 7.5 nM alone),Cell viability ([2]; epoxomicin 15 nM alone),Cell viability [3],Cell viability (brain tumor cell (T98G))
CC[C@H](C)[C@H](NC(=O)[C@H]([C@@H](C)CC)N(C)C(C)=O)C(=O)N[C@H](C(=O)N[C@@H](CC(C)C)C(=O)[C@@]1(C)CO1)[C@@H](C)O [Epoxomicin],66.45,86.50,81.52,94.06,–
CN(C)C(=O)C(CCN1CCC(O)(c2ccc(Cl)cc2)CC1)(c1ccccc1)c1ccccc1 [Loperamide],–,–,–,–,90.40
